The assay has as its target T1, Recombinant UCH-L3 (Homo sapiens (Human)) (UniProt P15374).
T1 sequence: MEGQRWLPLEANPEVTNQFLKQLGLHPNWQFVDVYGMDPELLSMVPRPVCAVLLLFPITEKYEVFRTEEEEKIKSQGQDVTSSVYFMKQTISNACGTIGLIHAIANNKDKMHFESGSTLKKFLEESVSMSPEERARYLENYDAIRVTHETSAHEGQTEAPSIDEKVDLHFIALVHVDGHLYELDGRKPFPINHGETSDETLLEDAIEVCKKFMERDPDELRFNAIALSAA
Description: titration of Ub-Prg against UCH-L3.

Regarding “Ubiquitin75-propargylamide (other; C-terminal propargylamide (propargylamine in place of the C-terminal glycine 76); other documents disagree on this pair)”, the stoichiometry of the reaction (Ub-Prg per UCH-L3 (1:1)) was found to be 1.

(Values after patent US20150158931A1, “CYSTEINE PROTEASE CAPTURING AGENTS” (Stichting Het Nederlands Kanker Instituut, priority 2012, published 2015).)
